Broadly, the IC50 is the point on the concentration scale where inhibition reaches its midpoint.

In the assay the test system is Aβ production in SK-N-BE(2) neuroblastoma cells. Description: Test Example 3: Aβ production inhibition in cell (Aβ40 ELISA, SK-N-BE(2)). As to conditions: Homo sapiens, SKNBE2, 6 h, read-out: Test Example 3 IC50, SK-N-BE(2) cells, 6 hours, Aβ40 ELISA normalized by viability.

With `NC1=NC2(CO1)c1cc(NC(=O)c3ncc(Cl)cc3F)ccc1OCC21CC1` (centres unmarked) [RP 29], the IC50 was found to be 22 nM. Consider `C[C@H]1Oc2ccc(-c3cccnc3F)cc2[C@@]2(COC(N)=N2)C12COC2` (racemic) [RP 77], for which the half-maximal inhibitory concentration (IC50) turned out to be 920 nM.

The values are drawn from patent publication US9242973B2, “Chromane compounds” (CoMentis, Inc., priority 2012, dated 2016).
